Values quoted from earlier work as cited in US8119808B2, “Tetrahydroquinoline derivatives as cannabinoid receptor modulators” (Bristol-Myers Squibb Company, priority 2003, dated 2012).

Protein sequences, listed by entry. Tags and fused reporters are not part of them.
UniProt P47746, whole entry: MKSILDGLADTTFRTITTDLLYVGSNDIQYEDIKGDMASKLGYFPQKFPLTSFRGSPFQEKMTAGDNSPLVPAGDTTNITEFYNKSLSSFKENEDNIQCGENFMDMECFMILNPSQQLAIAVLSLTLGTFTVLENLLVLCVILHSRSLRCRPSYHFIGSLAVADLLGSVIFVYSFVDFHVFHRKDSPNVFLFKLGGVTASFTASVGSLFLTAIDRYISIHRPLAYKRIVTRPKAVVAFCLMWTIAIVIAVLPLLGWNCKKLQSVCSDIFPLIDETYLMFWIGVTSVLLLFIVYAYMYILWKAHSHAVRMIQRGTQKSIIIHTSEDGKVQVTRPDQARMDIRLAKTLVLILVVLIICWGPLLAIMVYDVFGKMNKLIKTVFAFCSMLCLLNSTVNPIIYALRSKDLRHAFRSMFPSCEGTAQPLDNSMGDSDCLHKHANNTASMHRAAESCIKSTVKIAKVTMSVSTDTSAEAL

Target: CB-1 (Mus musculus, UniProt P47746)
Conditions: chronic administration for two weeks; cited from earlier work

AM-251
body weight and adipose tissue mass: substantial body weight reduction and decreased adipose tissue mass
